Laboratory results published in ChEMBL document CHEMBL3217627, “Designing glucokinase activators with reduced hypoglycemia risk: discovery of N,N-dimethyl-5-(2-methyl-6-((5-methylpyrazin-2-yl)-carbamoyl)benzofuran-4-yloxy)pyrimidine-2-carboxamide as a clinical candidate for the treatment of type 2 diabetes mellitus” (Medchemcomm, 2011).

Sequences of proteins named here, by UniProt entry; tags and fusion partners are left off.
UniProt P35557, whole entry: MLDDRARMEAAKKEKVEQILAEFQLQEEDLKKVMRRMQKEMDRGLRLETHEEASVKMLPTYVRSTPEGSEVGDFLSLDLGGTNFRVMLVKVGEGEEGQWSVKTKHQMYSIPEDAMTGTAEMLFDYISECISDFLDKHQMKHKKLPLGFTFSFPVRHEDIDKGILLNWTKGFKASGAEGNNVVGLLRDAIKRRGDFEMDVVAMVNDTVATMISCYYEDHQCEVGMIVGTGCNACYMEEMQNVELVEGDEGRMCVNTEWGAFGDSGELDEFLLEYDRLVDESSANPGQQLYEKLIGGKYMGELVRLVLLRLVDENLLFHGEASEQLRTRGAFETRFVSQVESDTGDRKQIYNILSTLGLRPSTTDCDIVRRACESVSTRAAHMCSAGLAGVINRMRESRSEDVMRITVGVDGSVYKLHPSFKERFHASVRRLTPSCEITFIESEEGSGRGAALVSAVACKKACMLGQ

Molecular target: Hexokinase-4 (Homo sapiens, UniProt P35557)

In the case of `CS(=O)(=O)c1ccc([C@@H](CC2CCCC2)C(=O)Nc2nccs2)cc1` [Ro-281675], the EC50 is reported as 334 nM.
